# Measured affinities in a library of Ab-14 heavy chain variants

Source: Li et al. 2023 (doi:10.1038/s41467-023-39022-2), MIT Lincoln Laboratory and A-Alpha Bio; data file from the FLAb repository.

All variants were tested on one target, the spike HR2 peptide PDVDLGDISGINAS (SARS-CoV-2).

Parent: Ab-14, a human scFv built as VH, a 15-residue (Gly4Ser)3 linker, VL. Only the CDRs of the heavy chain vary.
VH: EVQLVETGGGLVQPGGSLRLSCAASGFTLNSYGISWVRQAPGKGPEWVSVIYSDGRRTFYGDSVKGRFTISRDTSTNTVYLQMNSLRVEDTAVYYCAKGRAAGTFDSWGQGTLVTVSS
VL: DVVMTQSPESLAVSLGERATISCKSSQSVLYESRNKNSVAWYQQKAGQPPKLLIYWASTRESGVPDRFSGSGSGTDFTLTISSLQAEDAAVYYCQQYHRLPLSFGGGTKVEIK

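The variants were designed computationally from a first round of random CDR variants and then made and measured. Group labels follow the data file (Ctrl: baseline library sampled from a position-specific scoring matrix, with some repeated check sequences; Rand: our label for a block that the file lists under HC and that is probably the random mutants of the ten best first-round binders; En: ensemble of fine-tuned language models; GP: Gaussian process model; GPLM: also part of the Gaussian process libraries; HC: hill climbing; Gen: genetic algorithm; Gibbs: Gibbs sampling; a sequence that several methods proposed may carry one label only). Affinity was read by AlphaSeq, a pooled yeast mating assay with surface-displayed partners. The frequency of each diploid, read from paired DNA barcodes, reflects how well the two displayed proteins bind. A regression on co-assayed BCL2-family reference pairs converts the normalised counts of each replicate to an apparent Kd. There are six technical replicates.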

The parent's heavy chain CDRs are GFTLNSYGIS, VIYSDGRRTFYGDSVK, GRAAGTFDS; each variant's own CDRs replace them letter for letter. Each Kd is an estimate from the mating assay, the geometric mean of the replicates in which the pair was seen; lower is stronger. "nd" marks a missing value. The strain was present, yet no cells mated with the target were sequenced in any replicate, which points to weak or no binding. Order: sorted from the lowest average up, undetected variants last. Background: pairings of all heavy chain designs with three empty control strains gave a value in 1% of cases (median 120 nM, 5th percentile 7.0 nM). Values in that range, when seen in few replicates, are hard to tell from nonspecific mating.

CDR-H1 | CDR-H2 | CDR-H3 | group | Kd (apparent) | replicates with signal
GFDLDEYGIS | VIYADGRRTFYADSVK | GTQAGTFDA | En_HC | 130 pM | 6/6
GFDLNEYGIS | VIYADGKRTAYVDSVK | GSNAGTFDV | En_Gen | 260 pM | 6/6
GFDLDEQGIS | VIYADGQRTAYADQVK | GMQGVIART | En_Gibbs | 300 pM | 6/6
GFDLDEYGIS | VIYADGRRTAYADSVK | GNNAGTFDQ | En_Gen | 340 pM | 6/6
GFDLDEYGIS | VIYADGQRTFYTDSVK | GGNAGTFDV | En_HC | 380 pM | 6/6
GFDLNEYGIS | VIYADGLRTAYVDSVK | GNVAGTFDL | En_Gen | 400 pM | 6/6
GFDLNEYGIS | VIYADGRRTFYADSVK | GENAGTFDA | En_HC | 450 pM | 6/6
GFDLNEYGIS | VIYADGVRTSYADDVK | GNVAGTFDL | En_Gen | 460 pM | 6/6
GFNLNEYGIS | VIYADGRRTFYADSVK | GKQAGTFDM | En_HC | 460 pM | 6/6
GFDLNEYGIS | VIYADGQRTFYADSVK | GENAGTFDV | En_Gen | 580 pM | 6/6
GFQLNEYGIS | VIYADGRRTFYADSVK | GNQAGTFDQ | En_HC | 630 pM | 6/6
GFDLDEYGIS | VIYADGQRTAYIDSVK | GENAGTFDV | En_Gen | 640 pM | 6/6
GFDLDEYGIS | VIYADGQRTFYADSVK | GENAGTFDV | En_Gen | 680 pM | 6/6
GFDLNSYGIS | VIYSDGKRTFYGDSVK | GKTAGTFDV | GP_Gibbs | 760 pM | 6/6
GFELNSYGIS | VIYADGRRTFYGDSVK | GQTAGTFDS | GP_Gen | 850 pM | 6/6
GFDLNSYGIS | VIYSDGRRTFYKDKVK | GRTAGTFDS | GP_Gen | 860 pM | 6/6
GFELNSYGIS | VIYADGRRTFYGDSVK | GNAAGTFDS | GPLM_Gen | 900 pM | 6/6
GFDLNSYGIS | VIYSDGRRTFYVDSVK | GLNAGTFDS | GP_Gibbs | 900 pM | 6/6
GFDLNEYGIS | VIYADGRRTFYADSVK | GTNAGTFDS | En_HC | 1.0 nM | 2/6
GFDLNSYGIS | VIYSDGRRTFYGDDVK | GRNAGTFDT | GP_Gibbs | 1.0 nM | 6/6
GFDLNEYGIS | VIYSDGRRTFYGDSVK | GDAAGTFDQ | Ctrl | 1.3 nM | 6/6
GFSLEEYGIS | VIYADGKRDVYADSVK | GHGSGWFDI | En_Gibbs | 1.6 nM | 6/6
GFDLNSYGIS | VIYSDGRRTFYIDSVK | GRVAGTFDS | GP_Gen | 1.7 nM | 6/6
GFSLNSYGIS | VIYSDGRRTFYGDSVK | GNAAGTFDT | GPLM_Gibbs | 2.3 nM | 6/6
GFDLEEYGVS | VIYADGQRFAYAQDFK | GEAAGAFDL | En_Gibbs | 2.4 nM | 6/6
GFTLNEYGIS | VIYSDGRRTFYEDDVK | GRIAGTFDS | GP_HC | 4.5 nM | 6/6
GFTLESYGIS | VIYSDGRRTFYADSVK | GRAGGTFDS | GPLM_Gen | 6.2 nM | 4/6
GFDLNSYGIS | VIYSDGRRTFYADSVK | GRAAGTFDL | GPLM_Gen | 6.5 nM | 6/6
GFELNSYGIS | VIYSDGRRTFYGDSVK | GRQAGTFDA | GPLM_Gibbs | 9.1 nM | 4/6
GFEIQEYGIS | VIYADGRRQAYAESVK | GTLGGTLST | En_Gibbs | 9.9 nM | 6/6
YFDLNSYGIS | VIYSDGRRTFYKDSVK | GRTAGTFDS | GP_Gibbs | 13 nM | 2/6
MFDLNSYGIS | VIYSDGRRTFYGDSVK | GQEAGTFDT | GP_Gibbs | 14 nM | 6/6
GFHLNSYGIS | VIYSDGRRTFYSDSVK | GKQAGTFDS | GP_Gen | 17 nM | 1/6
GFTLNSYGIS | VIYSDGLRTFYIDSVK | GNAAGTFDS | GP_Gen | 19 nM | 5/6
GFSLNEYGIS | VIYSDGRRTFYCDSVK | GLAAGTFDR | GP_HC | 26 nM | 6/6
GFTLNSHGVS | VIYSDGRRTFYQDSVK | GQLAGTFDS | Rand | 100 nM | 5/6
GFQLNSYGIS | VIYSDGRRTFYSDSVK | GQAGGTFDS | GPLM_HC | 200 nM | 6/6
GFTLNSYGIS | VIYSDGYRTFYGDSVK | GRAAGGFDS | Ctrl | 270 nM | 2/6
GFTLNSYGIS | VIYSDGRRTAYGDSVK | GRAAGTFDW | Ctrl | 280 nM | 1/6
GFTLNSYGIS | VIYSDGRRTFYGDSVK | GRAAGTWDE | Ctrl | 460 nM | 1/6
GFSLDEYGIS | VIYADGARAFYANDVK | GNITDVFGK | En_Gibbs | nd | 0/6
GQDINEYGIS | VIYADGVRTQYSDSVK | SGTDVAMTV | En_Gibbs | nd | 0/6
GFTLNDYGIS | VIYSDGRRTFYIDSVK | GRAAGTFTS | GPLM_HC | nd | 0/6
GFTLNSYGIS | VIYSDGRRTFYGDSVK | GRAAVTFNQ | GP_HC | nd | 0/6
GFTLNKCGIS | VIYSDGRRTAYGDSVD | GSAAGTFDS | Ctrl | nd | 0/6
GFTLNDYGIS | VIYSDGRRTFYGDSVK | GRMAGTFKS | GP_HC | nd | 0/6
GFTLNSYGIS | VIYSDGRRTAYGDSVK | GRWAGWFDS | Ctrl | nd | 0/6
GFNLDEYGVS | VIYADGKRTVYHDSVK | GKRLGVKLN | En_Gibbs | nd | 0/6
GFTVNSHGIS | VIYSDGRRTFYGDSVK | GRAAGTFDS | Ctrl | nd | 0/6
GFDINEYGIS | VIYADGMRKAYVQQVK | GQNLGDVEV | En_Gibbs | nd | 0/6
GFTWDSYGIS | VIYSDGHRLFYGDSVK | CRAAGTALA | Rand | nd | 0/6
GFTLNSYGIS | VIYSDGRRTFYGDSVK | GEAADTFDS | Ctrl | nd | 0/6

The authors' rule: three or more of the six replicates give a measured affinity, fewer mean a poor binder. A sequence measured in both rounds can read differently, since the two assays cover different ranges.